Patent US12139488B2, “Pyrido[3,2-d]pyrimidine compounds uses thereof for treating a proliferative disease” (Universite de Montreal, priority 2021, dated 2024)
Where two headings read alike, the source gives them in different places.

Amino acid sequences for entries named in this document (tags omitted).
UniProt P15056, whole entry: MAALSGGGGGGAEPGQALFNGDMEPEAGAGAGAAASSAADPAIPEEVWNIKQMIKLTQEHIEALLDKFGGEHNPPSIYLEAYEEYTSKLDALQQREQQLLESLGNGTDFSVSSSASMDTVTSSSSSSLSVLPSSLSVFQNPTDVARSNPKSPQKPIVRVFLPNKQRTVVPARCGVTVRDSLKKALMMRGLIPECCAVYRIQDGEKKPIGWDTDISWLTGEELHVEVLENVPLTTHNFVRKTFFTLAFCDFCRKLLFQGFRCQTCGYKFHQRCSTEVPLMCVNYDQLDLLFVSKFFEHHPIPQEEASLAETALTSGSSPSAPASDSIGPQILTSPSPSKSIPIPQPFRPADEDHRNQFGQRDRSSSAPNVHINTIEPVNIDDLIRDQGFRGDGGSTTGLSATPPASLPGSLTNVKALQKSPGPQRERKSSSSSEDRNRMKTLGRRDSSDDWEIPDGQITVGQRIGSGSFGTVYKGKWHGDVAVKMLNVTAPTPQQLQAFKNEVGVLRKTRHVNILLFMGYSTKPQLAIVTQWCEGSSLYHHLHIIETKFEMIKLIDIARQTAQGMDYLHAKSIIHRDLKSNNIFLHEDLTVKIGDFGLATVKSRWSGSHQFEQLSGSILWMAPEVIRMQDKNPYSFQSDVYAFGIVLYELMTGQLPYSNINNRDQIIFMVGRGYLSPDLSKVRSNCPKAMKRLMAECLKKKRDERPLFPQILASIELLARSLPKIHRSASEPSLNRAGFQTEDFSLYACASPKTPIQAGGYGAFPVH
UniProt P04049, whole entry: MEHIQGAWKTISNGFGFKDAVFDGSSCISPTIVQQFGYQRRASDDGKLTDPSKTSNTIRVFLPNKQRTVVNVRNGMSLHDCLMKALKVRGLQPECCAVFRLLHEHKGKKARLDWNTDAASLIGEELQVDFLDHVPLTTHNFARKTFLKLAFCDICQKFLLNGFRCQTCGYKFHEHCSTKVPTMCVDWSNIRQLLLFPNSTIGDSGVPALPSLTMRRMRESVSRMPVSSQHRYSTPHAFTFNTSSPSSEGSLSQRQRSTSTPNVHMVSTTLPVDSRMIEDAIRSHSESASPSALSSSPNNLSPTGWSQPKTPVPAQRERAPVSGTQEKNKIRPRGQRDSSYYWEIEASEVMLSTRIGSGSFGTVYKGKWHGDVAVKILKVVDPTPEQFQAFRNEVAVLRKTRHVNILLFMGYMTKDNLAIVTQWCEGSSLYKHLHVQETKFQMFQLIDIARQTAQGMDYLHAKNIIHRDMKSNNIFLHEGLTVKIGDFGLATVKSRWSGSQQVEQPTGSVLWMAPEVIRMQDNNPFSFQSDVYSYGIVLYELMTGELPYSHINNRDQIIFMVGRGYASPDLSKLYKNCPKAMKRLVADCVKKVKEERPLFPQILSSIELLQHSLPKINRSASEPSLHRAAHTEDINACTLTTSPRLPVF

How the values were obtained:
BRAF = BRAF (Homo sapiens (Human), UniProt P15056); experiment: BRAF kinase activity assay (ADP-Glo)
CRAF = CRAF (Homo sapiens, UniProt P04049); experiment: CRAF kinase activity assay (ADP-Glo)
[1] = system: pERK in HCT-116 cells (KRAS G13D); experiment: Phospho-ERK inhibition (AlphaLISA SureFire Ultra p-ERK 1/2), HCT116; conditions: for HCT116 pERK % Ymin (lowest value of the IC50 curve): Ymin above −20% = minimal or no paradoxical activation
In short: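 Cells plated in RPMI-1640 with 5% FBS, kept overnight at 37° C, then treated 1 h with ten-point dilutions (top usually 10 μM; 0.5% DMSO). Lysate p-ERK1/2 (Thr202/Tyr204) read by AlphaLISA SureFire Ultra. % inhibition set against DMSO after subtracting the trametinib background; IC50 from four-parameter fit.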

[2] = read-out: Kinase IC50 (nM), BRAF biochemical kinase assay, BRAF
[3] = read-out: Kinase IC50 (nM), CRAF biochemical kinase assay, CRAF
[4] = read-out: HCT116 pERK IC50, HCT116 cells
[5] = read-out: Kinase IC50 (nM) BRAF
[6] = read-out: Kinase IC50 (nM) CRAF
[7] = read-out: HCT116 pERK IC50, HCT116 cells, class symbol before the bracket
[8] = read-out: Kinase IC50 (nM) BRAF, tested form: formic acid salt
[9] = read-out: Kinase IC50 (nM) CRAF, tested form: formic acid salt
[10] = HCT116 cells, Ymin in brackets, tested form: formic acid salt
[11] = read-out: HCT116 pERK IC50, HCT116 cells, class symbol before the bracket, tested form: formic acid salt

Compound	IC50 (BRAF; [2])	IC50 (CRAF; [3])	HCT116 pERK % Ymin (lowest value of the IC50 curve) ([1]; HCT116 cells)	IC50 [1, 4]	IC50 (BRAF; [5])	IC50 (CRAF; [6])	HCT116 pERK Ymin % ([1]; HCT116 cells, Ymin in brackets)	IC50 [1, 7]	other results
O=S(=O)(Nc1ccc(F)c(Nc2ncnc3ccc(-n4cnc5c(N6CC[C@@H](O)C6)cccc54)nc23)c1F)c1cccc(Cl)c1Cl	1 to 10 nM	< 10 nM	−19%	< 0.5 µM					
O=C(c1nn(-c2ccc3ncnc(Nc4c(F)ccc(NS(=O)(=O)c5cccc(Cl)c5Cl)c4F)c3n2)c2ccccc12)N1CCOCC1					< 1 nM	10 to 50 nM	5.2%	< 0.5 µM	YMIN of pERK IC50 dose response curve (paradoxical induction of pERK signaling) ([1]; RAS-mutant HCT116 cells, FIG. 1): > −20%
CS(=O)(=O)N1CCN(c2cccc3c2ncn3-c2ccc3ncnc(Nc4c(F)ccc(NS(=O)(=O)c5cccc(Cl)c5Cl)c4F)c3n2)CC1	1 to 10 nM	< 10 nM	−10%	< 0.5 µM					
O=C(c1cn(-c2ccc3ncnc(Nc4c(F)ccc(NS(=O)(=O)c5cccc(Cl)c5Cl)c4F)c3n2)c2ccccc12)N1CCNCC1									IC50 (BRAF; [8]): < 1 nM; IC50 (CRAF; [9]): < 10 nM; HCT116 pERK Ymin % [1, 10]: 1.4%; IC50 [1, 11]: 0.5 to 1 µM
O=S(=O)(Nc1ccc(F)c(Nc2ncnc3ccc(-c4nc(CN5CCOCC5)cs4)nc23)c1F)c1cccc(Cl)c1Cl	1 to 10 nM	10 to 50 nM	−17%	< 0.5 µM					
O=S(=O)(Nc1ccc(F)c(Nc2ncnc3ccc(-n4cnc5c(N6CCCC[C@@H]6CO)cccc54)nc23)c1F)c1cccc(Cl)c1Cl	1 to 10 nM	10 to 50 nM	−8%	< 0.5 µM					
COCCN(C)C(=O)c1nn(-c2ccc3ncnc(Nc4c(F)ccc(NS(=O)(=O)c5cccc(F)c5C)c4F)c3n2)c2ccccc12					< 1 nM	< 10 nM	−1.2%	< 0.5 µM	
Cc1c(Cl)cccc1S(=O)(=O)Nc1ccc(F)c(Nc2ncnc3ccc(-n4cc(C(=O)N5CCOCC5)nc4C)nc23)c1F					1 to 10 nM	10 to 50 nM	−10%	0.5 to 1 µM	
O=C(c1nn(-c2ccc3ncnc(Nc4c(F)ccc(NS(=O)(=O)c5cccc(Cl)c5Cl)c4F)c3n2)c2ccccc12)N1CCN(CCO)CC1									IC50 (BRAF; [8]): < 1 nM; IC50 (CRAF; [9]): < 10 nM; HCT116 pERK Ymin % [1, 10]: −1.4%; IC50 [1, 11]: < 0.5 µM
O=S(=O)(Nc1ccc(F)c(Nc2ncnc3ccc(-n4nnc5c(N6CCC7(CCOC7)CC6)cccc54)nc23)c1F)c1cccc(Cl)c1Cl	> 10 nM	> 50 nM	−9%	< 0.5 µM					
Cc1c(Cl)cccc1S(=O)(=O)Nc1ccc(F)c(Nc2ncnc3ccc(-n4nc(C(=O)N5CCC[C@H](O)C5)c5ccccc54)nc23)c1F					< 1 nM	10 to 50 nM	6.6%	< 0.5 µM	
Cc1c(F)cccc1S(=O)(=O)Nc1ccc(F)c(Nc2ncnc3ccc(-n4nc(C(=O)N(C)CCCO)c5ccccc54)nc23)c1F					< 1 nM	10 to 50 nM	−6.0%	< 0.5 µM	
O=S(=O)(Nc1ccc(F)c(Nc2ncnc3ccc(-n4cnc5c4CCCC5)nc23)c1F)c1ccccc1Cl					< 1 nM	< 10 nM	−2.6%	0.5 to 1 µM	
O=S(=O)(Nc1ccc(F)c(Nc2ncnc3ccc(-c4ncc(CO)s4)nc23)c1F)c1cccc(Cl)c1Cl	1 to 10 nM	10 to 50 nM	−3%	< 0.5 µM					
NC(=O)c1nn(-c2ccc3ncnc(Nc4c(F)ccc(NS(=O)(=O)c5ccccc5Cl)c4F)c3n2)c2ccccc12					1 to 10 nM	10 to 50 nM	−1%	1 to 10 µM	
N#CC1CCN(c2cccc3c2nnn3-c2ccc3ncnc(Nc4c(F)ccc(NS(=O)(=O)c5cccc(Cl)c5Cl)c4F)c3n2)CC1	1 to 10 nM	10 to 50 nM	−2%	< 0.5 µM					
Cc1c(F)cccc1S(=O)(=O)Nc1ccc(F)c(Nc2ncnc3ccc(-n4nc(C(=O)NCC5(O)COC5)c5ccccc54)nc23)c1F					< 1 nM	10 to 50 nM	−10.9%	< 0.5 µM	
COc1ccc(S(=O)(=O)Nc2ccc(F)c(Nc3ncnc4ccc(-n5cnc6c(N7CCC(O)(C(F)(F)F)CC7)cccc65)nc34)c2F)c(C)c1Cl	> 10 nM	10 to 50 nM	−2%	< 0.5 µM					
COCCCNC(=O)c1nn(-c2ccc3ncnc(Nc4c(F)ccc(NS(=O)(=O)c5cccc(F)c5C)c4F)c3n2)c2ccccc12					1 to 10 nM	10 to 50 nM	−0.8%	< 0.5 µM	
Cc1c(Cl)cccc1S(=O)(=O)Nc1ccc(F)c(Nc2ncnc3ccc(-n4cnc(C(=O)N5CCN(C)CC5)n4)nc23)c1F					1 to 10 nM	> 50 nM	7%	1 to 10 µM	
Cc1c(F)cccc1S(=O)(=O)Nc1ccc(F)c(Nc2ncnc3ccc(-n4nc(C(=O)N(C)C[C@H](O)CO)c5ccccc54)nc23)c1F					< 1 nM	10 to 50 nM	−9.0%	< 0.5 µM	
Cc1ccc(-c2ccc3ncnc(Nc4c(F)ccc(NS(=O)(=O)c5cccc(Cl)c5Cl)c4F)c3n2)o1	> 10 nM	10 to 50 nM	−14%	1 to 10 µM					
Cc1c(Cl)cccc1S(=O)(=O)Nc1ccc(F)c(Nc2ncnc3ccc(-n4cc(C(=O)N5CCNC[C@H]5C)c5ccccc54)nc23)c1F									IC50 (BRAF; [8]): < 1 nM; IC50 (CRAF; [9]): > 50 nM; HCT116 pERK Ymin % [1, 10]: −3.3%; IC50 [1, 11]: < 0.5 µM
O=S(=O)(Nc1ccc(F)c(Nc2ncnc3ccc(-n4cnc5ccccc54)nc23)c1F)c1cccc(F)c1C(F)(F)F					< 1 nM	< 10 nM			HCT116 pERK Ymin % ([1]; lowest % inhibition value of the IC50 curve, HCT116): −3%; IC50 ([1]; read-out: HCT116 pERK IC50 in μM, HCT116 cells, 1 h treatment): < 0.5 µM
Cc1c(F)cccc1S(=O)(=O)Nc1ccc(F)c(Nc2ncnc3ccc(-n4cnc5c(N6CCC[C@H](O)C6)cccc54)nc23)c1F	1 to 10 nM	10 to 50 nM	8%	< 0.5 µM					
Cc1c(Cl)cccc1S(=O)(=O)Nc1ccc(F)c(Nc2ncnc3ccc(-n4nc(C(=O)N5CCC[C@@H](O)C5)c5ccccc54)nc23)c1F					< 1 nM	10 to 50 nM	−11%	0.5 to 1 µM	
Cc1cn(-c2ccc3ncnc(Nc4c(F)ccc(NS(=O)(=O)c5cccc(Cl)c5C)c4F)c3n2)nc1C(=O)N1CCN(C)CC1					1 to 10 nM	> 50 nM	−5.6%	0.5 to 1 µM	
O=S(=O)(Nc1ccc(F)c(Nc2ncnc3ccc(-n4nnc5c(N6CCN(C7COC7)CC6)cccc54)nc23)c1F)c1cccc(Cl)c1Cl	< 1 nM	< 10 nM	−6%	< 0.5 µM					
O=S(=O)(Nc1ccc(F)c(Nc2ncnc3ccc(-n4cnc5c(N6CC7(CCOCC7)C6)cccc54)nc23)c1F)c1cccc(Cl)c1Cl	> 10 nM	10 to 50 nM	−9%	< 0.5 µM					
Cc1nn(-c2ccc3ncnc(Nc4c(F)ccc(NS(=O)(=O)c5cccc(Cl)c5C)c4F)c3n2)cc1C(=O)N1CCOCC1					1 to 10 nM	10 to 50 nM	−5%	1 to 10 µM	
